Earlier results on two substances are cited in patent US8986954B2, “DNA encoding function modifying Nav1.7 antibodies” (UCB Pharma S.A., priority 2009, dated 2015).

The conditions of data set [1]: in vivo; cited from earlier work.
The subject of a further data set is ADCC or CDC. The conditions noted are these: mutated constant region (hinge CPPC to SPPS); cited from earlier work.
The conditions of data set [2]: 3 of 196 patients; cited from earlier work.
A further data set has as its system FcγR. The conditions noted are these: hybrid IgG2/IgG4 constant region; cited from earlier work.
The test system of a further data set is complement. The conditions noted are these: hybrid IgG2/IgG4 constant region; cited from earlier work.

As for “Abatacept: fusion of human CTLA-4 with IgG1 hinge-Fc”, the immunogenicity incidence in data set [1] is 3%. For the same substance, the “mediation of ADCC or CDC” value in the data set on ADCC or CDC is on record as “does not mediate ADCC or CDC”.

As for “Eculizimumab: humanised anti-human C5 mAb for paroxysmal nocturnal hemoglobinuria comprising a hybrid constant region”, the “patients with anti-Eculizimumab antibodies detected (low titers)” value in data set [2] is reported as 3%. In addition, in the data set with FcγR, the FcγR binding entry is on record as “does not bind FcγR”. For the same substance, the complement activation result with complement is on record as “nor does it activate complement”.
